Test results reported in ChEMBL document CHEMBL3739358 (J Med Chem, 2015).

Sequences of proteins named here, by UniProt entry; tags and fusion partners are left off.
UniProt P35462, whole entry: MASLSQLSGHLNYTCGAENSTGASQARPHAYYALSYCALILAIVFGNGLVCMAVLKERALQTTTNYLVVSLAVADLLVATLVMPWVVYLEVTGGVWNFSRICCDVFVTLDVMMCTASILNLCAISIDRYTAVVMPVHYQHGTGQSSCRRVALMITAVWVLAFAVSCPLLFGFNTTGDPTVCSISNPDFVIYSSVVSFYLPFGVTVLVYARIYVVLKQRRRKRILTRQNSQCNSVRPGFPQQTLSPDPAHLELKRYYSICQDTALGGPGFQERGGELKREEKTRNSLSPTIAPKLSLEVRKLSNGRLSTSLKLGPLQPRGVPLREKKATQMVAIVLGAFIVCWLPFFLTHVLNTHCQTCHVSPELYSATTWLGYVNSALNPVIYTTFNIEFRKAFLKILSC

Target: D(3) dopamine receptor (Homo sapiens, UniProt P35462)
Test: Agonist activity at human D3 receptor expressed in CHO cells by [35S]GTPgammaS binding assay
Format: functional, cell-based

## CCCN1CCC[C@@H](c2cccc(O)c2)C1 [PRECLAMOL]
  EC50: 51.9 nM
